Assay: Addition of base to a bivalirudin salt solution: precipitate as pH passes through the pI
Assay type: physicochemical
Conditions: 2.0 g solid bivalirudin salt in 40 mL sterile WFI
Method: Base was added to a bivalirudin salt solution to confirm the formation of a bivalirudin precipitate as the pH of the solution passes through the pI of bivalirudin.
Solid bivalirudin salt (2.0 g) was added to 40 mL of sterile WFI to form a bivalirudin salt solution having a pH of 1.81. Sodium hydroxide (1 N) was added drop-wise to the bivalirudin salt solution and the pH was monitored. Qualitative observations were recorded for the precipitate that formed, as described in Table 11.

In the case of `CC[C@H](C)[C@H](NC(=O)[C@H](CCC(=O)O)NC(=O)[C@H](CCC(=O)O)NC(=O)[C@H](Cc1ccccc1)NC(=O)[C@H](CC(=O)O)NC(=O)CNC(=O)[C@H](CC(N)=O)NC(=O)CNC(=O)CNC(=O)CNC(=O)CNC(=O)[C@@H]1CCCN1C(=O)[C@H](CCCNC(=N)N)NC(=O)[C@@H]1CCCN1C(=O)[C@H](N)Cc1ccccc1)C(=O)N1CCC[C@H]1C(=O)N[C@@H](CCC(=O)O)C(=O)N[C@@H](CCC(=O)O)C(=O)N[C@@H](Cc1ccc(O)cc1)C(=O)N[C@@H](CC(C)C)C(=O)O.O=C(O)C(F)(F)F` [Bivalirudin salt solution, D-Phenylalanyl-L-Prolyl-L-Arginyl-L-Prolyl-Glycyl-Glycyl-Glycyl-Glycyl-L-Asparagyl-Glycyl-L-Aspartyl-L-Phenylalanyl-L-Glutamyl-L-Glutamyl-L-Isoleucyl-L-Prolyl-L-Glutamyl-L-Glutamyl-L-Tyrosyl-L-Leucine trifluoroacetate salt], the “pH of bivalirudin salt solution” value is reported as 1.81.

Source: patent publication US7985733B1, “Buffer-based method for preparing bivalirudin drug product” (The Medicines Company, priority 2010, dated 2011)
